pIC50: −log10 of the molar value.
Molecular target: Delta-type opioid receptor (Mus musculus, UniProt P32300)
Test: In vitro inhibition of electrically induced smooth muscle contractions of mouse vas deferens
Type: functional, tissue-based

Sequences of proteins named here, by UniProt entry; tags and fusion partners are left off.
UniProt P32300, whole entry: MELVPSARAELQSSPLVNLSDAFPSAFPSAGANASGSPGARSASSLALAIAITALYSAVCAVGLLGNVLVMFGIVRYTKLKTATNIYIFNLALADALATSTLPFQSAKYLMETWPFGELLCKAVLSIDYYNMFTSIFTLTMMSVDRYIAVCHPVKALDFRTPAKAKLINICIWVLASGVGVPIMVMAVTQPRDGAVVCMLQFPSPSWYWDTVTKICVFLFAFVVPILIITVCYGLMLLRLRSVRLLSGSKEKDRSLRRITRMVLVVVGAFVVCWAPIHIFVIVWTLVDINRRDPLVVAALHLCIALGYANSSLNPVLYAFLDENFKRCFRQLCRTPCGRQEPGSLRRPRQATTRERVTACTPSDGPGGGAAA

Row | Structure (SMILES) | pIC50
1 | CC(C)[C@H](NC(=O)[C@H](CC(=O)O)NC(=O)[C@H](Cc1ccccc1)NC(=O)[C@@H](C)NC(=O)[C@@H](N)Cc1ccc(O)cc1)C(=O)N[C@H](C(=O)NCC(N)=O)C(C)C (stereo in doubt; form 1) [DELTORPHIN C] | 9.44
2 | CC(C)[C@H](NC(=O)[C@H](CC(=O)O)NC(=O)[C@H](Cc1ccccc1)NC(=O)[C@@H](C)NC(=O)[C@@H](N)Cc1ccc(O)cc1)C(=O)N[C@H](C(=O)NCC(N)=O)C(C)C (stereo in doubt; form 2) [DELTORPHIN C] | 9.17

Reference: ChEMBL document CHEMBL1127486, “Design of cyclic deltorphins and dermenkephalins with a disulfide bridge leads to analogues with high selectivity for delta-opioid receptors” (J Med Chem, 1994)
